Test results from ChEMBL document CHEMBL6092202, “4-Anilinoquinazoline Derivatives as the First Potent NOD1-RIPK2 Signaling Pathway Inhibitors at the Nanomolar Range” (J Med Chem, 2024).
Calls of active or inactive are those of the source. No cut-off for these calls is given here.

Protein sequences, listed by entry. Tags and fused reporters are not part of them. Lines headed by an entry give the natural chain unless they say otherwise; changes in a name come on top.
UniProt P08069, whole entry, looked up: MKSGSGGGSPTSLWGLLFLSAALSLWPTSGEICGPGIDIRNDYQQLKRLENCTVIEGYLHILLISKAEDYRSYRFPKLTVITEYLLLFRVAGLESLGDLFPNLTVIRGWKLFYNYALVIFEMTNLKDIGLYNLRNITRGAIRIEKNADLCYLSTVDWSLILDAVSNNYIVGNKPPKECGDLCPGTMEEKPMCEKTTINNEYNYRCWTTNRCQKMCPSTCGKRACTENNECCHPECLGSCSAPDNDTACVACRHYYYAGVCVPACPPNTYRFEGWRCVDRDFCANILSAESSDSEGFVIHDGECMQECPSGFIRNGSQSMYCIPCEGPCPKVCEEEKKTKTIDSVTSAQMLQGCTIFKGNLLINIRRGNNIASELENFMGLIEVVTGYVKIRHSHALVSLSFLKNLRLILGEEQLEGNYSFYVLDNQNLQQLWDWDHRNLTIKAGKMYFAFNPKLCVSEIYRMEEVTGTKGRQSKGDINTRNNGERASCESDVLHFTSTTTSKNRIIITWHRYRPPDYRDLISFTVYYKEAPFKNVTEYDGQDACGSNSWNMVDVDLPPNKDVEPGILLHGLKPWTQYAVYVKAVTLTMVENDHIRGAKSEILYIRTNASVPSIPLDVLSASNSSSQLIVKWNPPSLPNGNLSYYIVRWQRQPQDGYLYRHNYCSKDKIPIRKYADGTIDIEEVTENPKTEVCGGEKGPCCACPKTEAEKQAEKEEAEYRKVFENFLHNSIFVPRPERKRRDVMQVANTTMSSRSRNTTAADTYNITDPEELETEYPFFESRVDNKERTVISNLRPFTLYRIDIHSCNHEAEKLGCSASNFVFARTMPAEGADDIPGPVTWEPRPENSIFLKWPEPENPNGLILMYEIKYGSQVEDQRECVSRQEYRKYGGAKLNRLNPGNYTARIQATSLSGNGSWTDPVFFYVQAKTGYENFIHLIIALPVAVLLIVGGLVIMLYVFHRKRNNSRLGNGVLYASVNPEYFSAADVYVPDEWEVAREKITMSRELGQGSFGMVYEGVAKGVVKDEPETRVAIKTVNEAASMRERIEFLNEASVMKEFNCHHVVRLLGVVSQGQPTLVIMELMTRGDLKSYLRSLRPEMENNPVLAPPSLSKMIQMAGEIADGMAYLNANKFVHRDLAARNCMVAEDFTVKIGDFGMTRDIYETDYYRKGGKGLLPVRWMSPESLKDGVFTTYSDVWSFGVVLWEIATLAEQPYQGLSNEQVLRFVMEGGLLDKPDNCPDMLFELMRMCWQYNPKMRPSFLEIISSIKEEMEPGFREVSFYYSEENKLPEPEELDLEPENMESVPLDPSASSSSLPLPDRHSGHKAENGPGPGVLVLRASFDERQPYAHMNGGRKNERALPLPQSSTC
UniProt O14920: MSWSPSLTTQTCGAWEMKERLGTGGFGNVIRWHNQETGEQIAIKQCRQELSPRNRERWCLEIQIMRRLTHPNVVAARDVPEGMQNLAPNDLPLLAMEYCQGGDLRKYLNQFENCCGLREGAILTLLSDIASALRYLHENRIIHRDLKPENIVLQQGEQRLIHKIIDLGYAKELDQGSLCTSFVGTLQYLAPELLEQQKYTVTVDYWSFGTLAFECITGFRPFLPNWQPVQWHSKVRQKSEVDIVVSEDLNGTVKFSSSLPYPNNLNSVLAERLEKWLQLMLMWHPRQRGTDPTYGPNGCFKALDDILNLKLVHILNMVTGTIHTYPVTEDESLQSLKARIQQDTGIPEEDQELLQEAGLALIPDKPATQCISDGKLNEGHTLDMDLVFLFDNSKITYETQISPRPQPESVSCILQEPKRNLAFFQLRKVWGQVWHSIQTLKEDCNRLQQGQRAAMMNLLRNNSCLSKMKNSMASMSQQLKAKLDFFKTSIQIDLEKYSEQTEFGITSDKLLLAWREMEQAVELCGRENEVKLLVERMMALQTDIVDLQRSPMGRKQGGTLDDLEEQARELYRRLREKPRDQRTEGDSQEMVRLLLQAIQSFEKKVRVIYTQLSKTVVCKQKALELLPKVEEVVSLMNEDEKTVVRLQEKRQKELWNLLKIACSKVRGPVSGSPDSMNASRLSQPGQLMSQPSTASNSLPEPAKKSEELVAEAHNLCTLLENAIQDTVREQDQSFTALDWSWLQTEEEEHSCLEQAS
UniProt P68400, whole entry, looked up: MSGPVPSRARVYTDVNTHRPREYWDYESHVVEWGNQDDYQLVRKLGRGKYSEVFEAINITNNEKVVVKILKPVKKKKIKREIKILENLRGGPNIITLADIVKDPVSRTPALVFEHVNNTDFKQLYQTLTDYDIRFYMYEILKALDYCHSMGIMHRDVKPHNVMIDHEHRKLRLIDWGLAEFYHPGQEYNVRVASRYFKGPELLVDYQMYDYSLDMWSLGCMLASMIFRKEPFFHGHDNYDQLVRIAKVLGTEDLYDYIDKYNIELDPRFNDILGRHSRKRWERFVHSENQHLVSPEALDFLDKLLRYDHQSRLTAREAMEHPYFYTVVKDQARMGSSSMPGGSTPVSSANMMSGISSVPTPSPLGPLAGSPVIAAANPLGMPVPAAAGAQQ
UniProt P31749: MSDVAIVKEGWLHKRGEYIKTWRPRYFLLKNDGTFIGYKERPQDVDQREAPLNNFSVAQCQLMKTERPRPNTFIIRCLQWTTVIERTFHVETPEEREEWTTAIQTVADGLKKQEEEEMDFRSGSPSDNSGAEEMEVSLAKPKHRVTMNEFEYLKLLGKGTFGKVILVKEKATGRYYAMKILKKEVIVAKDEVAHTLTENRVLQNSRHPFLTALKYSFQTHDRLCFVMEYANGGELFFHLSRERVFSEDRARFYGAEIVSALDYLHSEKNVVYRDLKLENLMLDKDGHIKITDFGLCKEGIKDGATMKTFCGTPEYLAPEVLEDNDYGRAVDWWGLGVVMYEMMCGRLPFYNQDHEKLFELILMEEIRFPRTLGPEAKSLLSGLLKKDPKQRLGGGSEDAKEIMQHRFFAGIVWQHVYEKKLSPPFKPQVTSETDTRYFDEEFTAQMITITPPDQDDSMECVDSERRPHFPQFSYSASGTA
UniProt Q16539, whole entry: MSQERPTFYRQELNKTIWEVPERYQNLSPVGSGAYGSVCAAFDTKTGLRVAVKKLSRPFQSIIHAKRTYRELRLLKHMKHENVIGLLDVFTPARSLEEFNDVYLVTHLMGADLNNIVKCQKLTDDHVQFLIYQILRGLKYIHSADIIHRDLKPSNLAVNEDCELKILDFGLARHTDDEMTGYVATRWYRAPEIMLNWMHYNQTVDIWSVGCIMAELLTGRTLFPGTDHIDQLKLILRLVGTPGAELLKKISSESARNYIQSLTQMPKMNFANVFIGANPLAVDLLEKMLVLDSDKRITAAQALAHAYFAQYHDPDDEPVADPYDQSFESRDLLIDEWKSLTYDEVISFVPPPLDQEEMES
UniProt Q13153, whole entry, looked up: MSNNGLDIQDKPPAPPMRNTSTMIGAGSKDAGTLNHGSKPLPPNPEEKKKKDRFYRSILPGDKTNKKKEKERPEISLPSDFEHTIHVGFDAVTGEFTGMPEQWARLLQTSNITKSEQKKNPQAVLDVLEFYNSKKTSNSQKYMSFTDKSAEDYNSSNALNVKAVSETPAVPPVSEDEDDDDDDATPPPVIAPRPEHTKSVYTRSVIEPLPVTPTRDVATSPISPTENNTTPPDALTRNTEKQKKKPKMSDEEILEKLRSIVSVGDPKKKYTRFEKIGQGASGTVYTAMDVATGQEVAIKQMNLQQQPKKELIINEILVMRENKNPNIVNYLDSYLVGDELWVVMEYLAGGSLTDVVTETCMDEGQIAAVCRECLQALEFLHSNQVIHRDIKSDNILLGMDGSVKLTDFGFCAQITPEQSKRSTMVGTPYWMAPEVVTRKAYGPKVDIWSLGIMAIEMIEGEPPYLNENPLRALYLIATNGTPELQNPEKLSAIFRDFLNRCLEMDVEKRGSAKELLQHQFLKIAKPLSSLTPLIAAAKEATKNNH
UniProt Q8N4C8: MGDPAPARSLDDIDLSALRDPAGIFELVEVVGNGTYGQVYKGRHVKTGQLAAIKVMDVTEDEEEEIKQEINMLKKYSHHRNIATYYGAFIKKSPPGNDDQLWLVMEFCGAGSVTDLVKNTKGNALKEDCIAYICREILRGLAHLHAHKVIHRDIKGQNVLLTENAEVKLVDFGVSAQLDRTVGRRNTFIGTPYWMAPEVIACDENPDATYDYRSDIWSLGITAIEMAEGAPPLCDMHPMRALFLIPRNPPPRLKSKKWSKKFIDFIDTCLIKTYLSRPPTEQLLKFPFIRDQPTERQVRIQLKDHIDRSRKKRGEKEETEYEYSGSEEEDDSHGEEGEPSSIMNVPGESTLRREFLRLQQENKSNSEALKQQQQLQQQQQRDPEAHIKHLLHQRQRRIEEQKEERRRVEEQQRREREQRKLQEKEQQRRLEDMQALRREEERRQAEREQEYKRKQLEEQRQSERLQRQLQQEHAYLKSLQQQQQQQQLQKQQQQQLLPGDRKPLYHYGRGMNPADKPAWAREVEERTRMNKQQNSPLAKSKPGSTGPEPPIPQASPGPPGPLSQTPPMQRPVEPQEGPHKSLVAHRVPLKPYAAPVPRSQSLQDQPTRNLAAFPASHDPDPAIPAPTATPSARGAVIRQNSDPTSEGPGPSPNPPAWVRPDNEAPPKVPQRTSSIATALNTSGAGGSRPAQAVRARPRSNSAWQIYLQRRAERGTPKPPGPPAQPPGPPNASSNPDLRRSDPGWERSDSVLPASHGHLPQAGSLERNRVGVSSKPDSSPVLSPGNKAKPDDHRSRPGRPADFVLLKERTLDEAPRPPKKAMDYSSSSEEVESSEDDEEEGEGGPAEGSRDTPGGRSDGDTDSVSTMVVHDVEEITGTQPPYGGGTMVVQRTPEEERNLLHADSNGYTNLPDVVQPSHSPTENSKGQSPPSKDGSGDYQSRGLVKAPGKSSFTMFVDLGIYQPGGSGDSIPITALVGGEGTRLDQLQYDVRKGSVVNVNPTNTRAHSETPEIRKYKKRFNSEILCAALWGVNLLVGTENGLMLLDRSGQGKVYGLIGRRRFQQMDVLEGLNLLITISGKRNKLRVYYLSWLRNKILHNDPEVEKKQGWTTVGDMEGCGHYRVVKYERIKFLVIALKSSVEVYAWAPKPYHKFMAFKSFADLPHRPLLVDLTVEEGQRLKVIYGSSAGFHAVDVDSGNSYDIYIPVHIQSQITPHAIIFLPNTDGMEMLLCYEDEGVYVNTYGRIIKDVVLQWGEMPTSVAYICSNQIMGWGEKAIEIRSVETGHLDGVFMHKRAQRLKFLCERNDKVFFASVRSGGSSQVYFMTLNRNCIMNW
UniProt P49137, whole entry, looked up: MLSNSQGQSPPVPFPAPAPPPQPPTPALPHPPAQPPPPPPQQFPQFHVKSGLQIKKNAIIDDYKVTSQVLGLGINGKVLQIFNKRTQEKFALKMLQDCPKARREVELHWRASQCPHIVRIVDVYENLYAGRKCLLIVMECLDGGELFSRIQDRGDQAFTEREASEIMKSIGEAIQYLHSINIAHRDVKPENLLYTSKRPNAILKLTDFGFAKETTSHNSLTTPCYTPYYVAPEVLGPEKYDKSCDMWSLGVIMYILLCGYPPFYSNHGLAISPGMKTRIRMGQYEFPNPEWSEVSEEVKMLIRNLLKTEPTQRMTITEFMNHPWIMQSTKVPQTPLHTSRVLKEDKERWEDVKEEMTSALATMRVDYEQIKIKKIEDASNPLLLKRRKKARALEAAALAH
UniProt O14757: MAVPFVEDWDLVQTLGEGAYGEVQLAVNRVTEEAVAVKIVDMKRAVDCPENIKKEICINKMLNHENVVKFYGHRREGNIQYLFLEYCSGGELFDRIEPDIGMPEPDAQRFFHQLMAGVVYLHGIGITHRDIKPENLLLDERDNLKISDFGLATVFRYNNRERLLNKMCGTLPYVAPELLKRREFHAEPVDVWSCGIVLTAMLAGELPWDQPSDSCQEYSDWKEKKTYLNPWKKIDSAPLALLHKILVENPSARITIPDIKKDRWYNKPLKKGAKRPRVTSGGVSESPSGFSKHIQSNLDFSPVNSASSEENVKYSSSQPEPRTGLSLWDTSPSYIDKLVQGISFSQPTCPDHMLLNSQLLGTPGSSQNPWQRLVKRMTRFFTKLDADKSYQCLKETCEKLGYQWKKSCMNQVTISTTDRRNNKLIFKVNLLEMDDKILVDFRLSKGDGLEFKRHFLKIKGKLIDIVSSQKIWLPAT
UniProt Q16566: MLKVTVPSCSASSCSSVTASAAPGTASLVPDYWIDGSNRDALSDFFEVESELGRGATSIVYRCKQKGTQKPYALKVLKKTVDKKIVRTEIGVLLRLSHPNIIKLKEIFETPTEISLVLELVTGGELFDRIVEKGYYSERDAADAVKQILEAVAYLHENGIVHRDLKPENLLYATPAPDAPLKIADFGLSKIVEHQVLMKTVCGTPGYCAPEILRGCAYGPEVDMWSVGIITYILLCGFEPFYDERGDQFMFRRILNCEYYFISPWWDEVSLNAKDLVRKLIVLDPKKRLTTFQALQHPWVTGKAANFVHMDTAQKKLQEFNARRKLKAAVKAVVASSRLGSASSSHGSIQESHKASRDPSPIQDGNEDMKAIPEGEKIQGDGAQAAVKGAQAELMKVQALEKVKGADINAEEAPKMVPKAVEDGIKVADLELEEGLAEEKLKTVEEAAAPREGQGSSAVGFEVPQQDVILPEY

How the values were obtained:
[1] = target: Mitogen-activated protein kinase kinase kinase 20 (Homo sapiens) (UniProt Q9NYL2); test: Inhibition of human ZAK assessed as residual activity at 1 uM relative to control
[2] = target: TGF-beta receptor type-2 (Homo sapiens) (UniProt P37173); test: Inhibition of human TGFbetaR2 assessed as residual activity at 1 uM relative to control
TAK1/TAB1 (Homo sapiens) = TAK1/TAB1 (Homo sapiens) (UniProt Q15750+O43318); test: Inhibition of human TAK1-TAB1 assessed as residual activity at 1 uM relative to control; assay type: protein-complex assay
Homo sapiens [3] = species: Homo sapiens; test: Inhibition of human MLK2 assessed as residual activity at 1 uM relative to control
[4] = target: Interleukin-1 receptor-associated kinase 4 (Homo sapiens) (UniProt Q9NWZ3); test: Inhibition of human IRAK4 assessed as residual activity at 1 uM relative to control
[5] = target: Activin receptor type-1B (Homo sapiens) (UniProt P36896); test: Inhibition of human ALK4 assessed as residual activity at 1 uM relative to control
[6] = target: Activin receptor type-1 (Homo sapiens) (UniProt Q04771); test: Inhibition of human ALK2 assessed as residual activity at 1 uM relative to control
[7] = target: Tyrosine-protein kinase SYK (Homo sapiens) (UniProt P43405); test: Inhibition of human SYK assessed as residual activity at 1 uM relative to control
[8] = target: Tyrosine-protein kinase Lck (Homo sapiens) (UniProt P06239); test: Inhibition of human LCK assessed as residual activity at 1 uM relative to control
[9] = target: Tyrosine-protein kinase JAK3 (Homo sapiens) (UniProt P52333); test: Inhibition of human JACK3 assessed as residual activity at 1 uM relative to control
[10] = target: Fibroblast growth factor receptor 1 (Homo sapiens) (UniProt P11362); test: Inhibition of human FGFR1 assessed as residual activity at 1 uM relative to control
[11] = target: Platelet-derived growth factor receptor beta (Homo sapiens) (UniProt P09619); test: Inhibition of human PDGFRbeta assessed as residual activity at 1 uM relative to control
[12] = target: Platelet-derived growth factor receptor alpha (Homo sapiens) (UniProt P16234); test: Inhibition of human PDGFRalpha assessed as residual activity at 1 uM relative to control
[13] = target: Insulin receptor (Homo sapiens) (UniProt P06213); test: Inhibition of human INSR assessed as residual activity at 1 uM relative to control
[14] = target: Insulin-like growth factor 1 receptor (Homo sapiens) (UniProt P08069); test: Inhibition of human IGF1R assessed as residual activity at 1 uM relative to control
[15] = target: Receptor tyrosine-protein kinase erbB-4 (Homo sapiens) (UniProt Q15303); test: Inhibition of human HER4 assessed as residual activity at 1 uM relative to control
[16] = target: Receptor tyrosine-protein kinase erbB-2 (Homo sapiens) (UniProt P04626); test: Inhibition of human HER2 assessed as residual activity at 1 uM relative to control
[17] = target: Casein kinase I isoform gamma-1 (Homo sapiens) (UniProt Q9HCP0); test: Inhibition of human CK1gamma1 assessed as residual activity at 1 uM relative to control
[18] = target: Casein kinase I isoform alpha (Homo sapiens) (UniProt P48729); test: Inhibition of human CK1alpha1 assessed as residual activity at 1 uM relative to control
[19] = target: Inhibitor of nuclear factor kappa-B kinase subunit beta (Homo sapiens) (UniProt O14920); test: Inhibition of human IKKb assessed as residual activity at 1 uM relative to control
[20] = target: Casein kinase II subunit alpha (Homo sapiens) (UniProt P68400); test: Inhibition of human CK2a1 assessed as residual activity at 1 uM relative to control
[21] = target: Aurora kinase A (Homo sapiens) (UniProt O14965); test: Inhibition of human Aurora A assessed as residual activity at 1 uM relative to control
[22] = target: Rho-associated protein kinase 1 (Homo sapiens) (UniProt Q13464); test: Inhibition of human ROCK1 assessed as residual activity at 1 uM relative to control
[23] = target: Protein kinase C alpha type (Homo sapiens) (UniProt P17252); test: Inhibition of human PKCalpha assessed as residual activity at 1 uM relative to control
[24] = target: RAC-alpha serine/threonine-protein kinase (Homo sapiens) (UniProt P31749); test: Inhibition of human AKT1 assessed as residual activity at 1 uM relative to control
[25] = target: Mitogen-activated protein kinase 14 (Homo sapiens) (UniProt Q16539); test: Inhibition of human p38alpha assessed as residual activity at 1 uM relative to control
[26] = target: Glycogen synthase kinase-3 beta (Homo sapiens) (UniProt P49841); test: Inhibition of human GSK3beta assessed as residual activity at 1 uM relative to control
[27] = target: Cyclin-dependent kinase 2/cyclin E1 (Homo sapiens) (UniProt P24864+P24941); test: Inhibition of human CDK2/Cyclin E1 assessed as residual activity at 1 uM relative to control; assay type: protein-complex assay
[28] = target: PAK 1/CDC42 (Homo sapiens) (UniProt Q13153+P60953); test: Inhibition of human PAK1/CDC42 assessed as residual activity at 1 uM relative to control; assay type: protein-complex assay
[29] = target: Misshapen-like kinase 1 (Homo sapiens) (UniProt Q8N4C8); test: Inhibition of human MINK1 assessed as residual activity at 1 uM relative to control
[30] = target: MAP kinase-activated protein kinase 2 (Homo sapiens) (UniProt P49137); test: Inhibition of human MAPKAPK2 assessed as residual activity at 1 uM relative to control
[31] = target: Death-associated protein kinase 1 (Homo sapiens) (UniProt P53355); test: Inhibition of human DAPK1 assessed as residual activity at 1 uM relative to control
[32] = target: Serine/threonine-protein kinase Chk1 (Homo sapiens) (UniProt O14757); test: Inhibition of human CHK1 assessed as residual activity at 1 uM relative to control
[33] = target: Calcium/calmodulin-dependent protein kinase type IV (Homo sapiens) (UniProt Q16566); test: Inhibition of human CAMK4 assessed as residual activity at 1 uM relative to control
Homo sapiens [34] = species: Homo sapiens; test: Inhibition of human AMPKalpha2/beta1/gamma1 assessed as residual activity at 1 uM relative to control
HEK-Blue hNOD1 = test: Anti-inflammatory activity in HEK-Blue hNOD1 cells assessed as reduction in C12-iE-DAP stimulated IL-8 secretion at 0.001 to 1 uM preincubated for 1 hr followed by C12-iE-DAP addition and measured after 22 hrs by fluorescence based analysis; assay type: functional, cell-based; conditions: Homo sapiens, dose 0.001-1 µM, time 23.0 hrs

## CCN(CC)CCOc1cc2ncnc(Nc3cc(OC)c(Cl)cc3Cl)c2cc1OC
[1]
  Activity: > 60%
[2]
  Activity: > 60%
TAK1/TAB1 (Homo sapiens)
  Activity: > 60%
Homo sapiens [3]
  Activity: > 60%
[4]
  Activity: > 60%
[5]
  Activity: 20%
[6]
  Activity: < 20%
[7]
  Activity: > 60%
[8]
  Activity: < 20%
[9]
  Activity: > 60%
[10]
  Activity: > 60%
[11]
  Activity: > 60%
[12]
  Activity: > 60%
[13]
  Activity: < 20%
[14]
  Activity: > 60%
[15]
  Activity: > 60%
[16]
  Activity: 20%
[17]
  Activity: > 60%
[18]
  Activity: > 60%
[19]
  Activity: > 60%
[20]
  Activity: > 60%
[21]
  Activity: > 60%
[22]
  Activity: > 60%
[23]
  Activity: > 60%
[24]
  Activity: > 60%
[25]
  Activity: > 60%
[26]
  Activity: > 60%
[27]
  Activity: > 60%
[28]
  Activity: > 60%
[29]
  Activity: > 60%
[30]
  Activity: > 60%
[31]
  Activity: > 60%
[32]
  Activity: > 60%
[33]
  Activity: > 60%
Homo sapiens [34]
  Activity: > 60%
HEK-Blue hNOD1
  Activity: Active
